Test results as given in patent US11717508B2, “Compounds, compositions, and methods for inhibiting bacterial growth” (priority 2016, dated 2023).
Read-outs that look alike come from different tables or passages of the source.

Amino acid sequences for entries named in this document (tags omitted). A change or cut given only in a name is not applied to a line headed by its entry.
UniProt P9WGK3: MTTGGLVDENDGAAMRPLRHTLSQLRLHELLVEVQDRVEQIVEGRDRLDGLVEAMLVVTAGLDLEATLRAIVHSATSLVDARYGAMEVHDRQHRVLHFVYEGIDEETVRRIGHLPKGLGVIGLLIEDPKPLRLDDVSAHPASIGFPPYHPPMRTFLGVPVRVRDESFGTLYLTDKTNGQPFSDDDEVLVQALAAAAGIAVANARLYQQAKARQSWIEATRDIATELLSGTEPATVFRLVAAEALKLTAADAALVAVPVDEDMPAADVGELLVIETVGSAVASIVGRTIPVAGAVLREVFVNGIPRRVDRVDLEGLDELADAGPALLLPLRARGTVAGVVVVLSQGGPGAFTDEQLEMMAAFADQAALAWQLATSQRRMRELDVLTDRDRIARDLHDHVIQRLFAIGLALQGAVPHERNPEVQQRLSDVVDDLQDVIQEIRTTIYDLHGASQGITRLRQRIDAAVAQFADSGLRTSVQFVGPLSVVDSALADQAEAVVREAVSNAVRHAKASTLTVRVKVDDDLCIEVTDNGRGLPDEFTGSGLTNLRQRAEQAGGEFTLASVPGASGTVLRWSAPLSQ

Tests used:
DosRST regulon = format: cell-based
DosS = DosS (Mycobacterium tuberculosis, UniProt P9WGK3); format: biochemical; conditions: DTN-reduced DosS

C[C@@H]1CC[C@H]2[C@@H](C)C(=O)O[C@@H]3O[C@]4(C)CC[C@@H]1[C@]32OO4 [HC101A, artemisinin, reference compound]
WT DMSO/WT HC101A Fold change (DosRST regulon; gene MT1454 (Rv1439c)): 0.4582
WT DMSO/WT HC101A Fold change (DosRST regulon; gene MT1585.1): 0.1658
WT DMSO/WT HC101A Fold change (DosRST regulon; gene MT1586 (Rv1535)): 0.3298
WT DMSO/WT HC101A Fold change (DosRST regulon; gene MT1600 (Rv1550 fadD11)): 0.42
WT DMSO/WT HC101A Fold change (DosRST regulon; gene MT1627): 0.4181
WT DMSO/WT HC101A Fold change (DosRST regulon; gene MT1638 (Rv1602 hisH)): 0.4546
WT DMSO/WT HC101A Fold change (DosRST regulon; gene MT1692 (Rv1654 argB)): 0.4031
WT DMSO/WT HC101A Fold change (DosRST regulon; gene MT1693 (Rv1655 argD)): 0.4373
WT DMSO/WT HC101A Fold change (DosRST regulon; gene MT1694 (Rv1656 argF)): 0.2782
WT DMSO/WT HC101A Fold change (DosRST regulon; gene MT1725 (Rv1685c)): 0.3787
WT DMSO/WT HC101A Fold change (DosRST regulon; gene MT1726 (Rv1686c)): 0.3243
WT DMSO/WT HC101A Fold change (DosRST regulon; gene MT1727 (Rv1687c)): 0.3344
WT DMSO/WT HC101A Fold change (DosRST regulon; gene MT1736): 0.4999
WT DMSO/WT HC101A Fold change (DosRST regulon; gene MT1774 (Rv1733c)): 0.04455
WT DMSO/WT HC101A Fold change (DosRST regulon; gene MT1775): 0.07083
WT DMSO/WT HC101A Fold change (DosRST regulon; gene MT1776 (Rv1735c)): 0.1794
WT DMSO/WT HC101A Fold change (DosRST regulon; gene MT1777): 0.0375
WT DMSO/WT HC101A Fold change (DosRST regulon; gene MT1778 (Rv1736c narX)): 0.02944
WT DMSO/WT HC101A Fold change (DosRST regulon; gene MT1779 (Rv1737c narK2)): 0.04042
WT DMSO/WT HC101A Fold change (DosRST regulon; gene MT1780 (Rv1738)): 0.04375
WT DMSO/WT HC101A Fold change (DosRST regulon; gene MT1797): 0.2522
WT DMSO/WT HC101A Fold change (DosRST regulon; gene MT1809 (Rv1760)): 0.466
WT DMSO/WT HC101A Fold change (DosRST regulon; gene MT1822): 0.4638
WT DMSO/WT HC101A Fold change (DosRST regulon; gene MT1823 (Rv1773c)): 0.2892
WT DMSO/WT HC101A Fold change (DosRST regulon; gene MT1840 (Rv1791 PE)): 0.4607
WT DMSO/WT HC101A Fold change (DosRST regulon; gene MT1850 (Rv1812c)): 0.4435
WT DMSO/WT HC101A Fold change (DosRST regulon; gene MT1851 (Rv1813c)): 0.05112
WT DMSO/WT HC101A Fold change (DosRST regulon; gene MT1882 (Rv1834)): 0.3391
WT DMSO/WT HC101A Fold change (DosRST regulon; gene MT1932): 0.4407
WT DMSO/WT HC101A Fold change (DosRST regulon; gene MT1942): 0.4836
WT DMSO/WT HC101A Fold change (DosRST regulon; gene MT1943): 0.4838
WT DMSO/WT HC101A Fold change (DosRST regulon; gene MT1955 (Rv1904)): 0.4978
WT DMSO/WT HC101A Fold change (DosRST regulon; gene MT1959 (Rv1918c PPE)): 0.4596
WT DMSO/WT HC101A Fold change (DosRST regulon; gene MT1986 (Rv1936)): 0.193
WT DMSO/WT HC101A Fold change (DosRST regulon; gene MT1987 (Rv1937)): 0.2038
WT DMSO/WT HC101A Fold change (DosRST regulon; gene MT1988 (Rv1938 cphB)): 0.197
WT DMSO/WT HC101A Fold change (DosRST regulon; gene MT1989 (Rv1939)): 0.2423
WT DMSO/WT HC101A Fold change (DosRST regulon; gene MT2007): 0.4225
WT DMSO/WT HC101A Fold change (DosRST regulon; gene MT2016 (Rv1964)): 0.2966
WT DMSO/WT HC101A Fold change (DosRST regulon; gene MT2017): 0.1715
WT DMSO/WT HC101A Fold change (DosRST regulon; gene MT2018 (Rv1966 mce3)): 0.1698
WT DMSO/WT HC101A Fold change (DosRST regulon; gene MT2019 (Rv1967)): 0.1773
WT DMSO/WT HC101A Fold change (DosRST regulon; gene MT2020 (Rv1968)): 0.1625
WT DMSO/WT HC101A Fold change (DosRST regulon; gene MT2021 (Rv1969)): 0.2873
WT DMSO/WT HC101A Fold change (DosRST regulon; gene MT2022 (Rv1970 lprM)): 0.1966
WT DMSO/WT HC101A Fold change (DosRST regulon; gene MT2023 (Rv1971)): 0.204
WT DMSO/WT HC101A Fold change (DosRST regulon; gene MT2024 (Rv1972)): 0.4588
WT DMSO/WT HC101A Fold change (DosRST regulon; gene MT2042.1): 0.3482
WT DMSO/WT HC101A Fold change (DosRST regulon; gene MT2050 (Rv2004c)): 0.08238
WT DMSO/WT HC101A Fold change (DosRST regulon; gene MT2051 (Rv2005c)): 0.06892
WT DMSO/WT HC101A Fold change (DosRST regulon; gene MT2052 (Rv1996)): 0.007357
WT DMSO/WT HC101A Fold change (DosRST regulon; gene MT2052 (Rv2006 otsB)): 0.1795
WT DMSO/WT HC101A Fold change (DosRST regulon; gene MT2053 (Rv1997 ctpF)): 0.03277
WT DMSO/WT HC101A Fold change (DosRST regulon; gene MT2053 (Rv2007c fdxA)): 0.1127
WT DMSO/WT HC101A Fold change (DosRST regulon; gene MT2059 (Rv2003c)): 0.1512
WT DMSO/WT HC101A Fold change (DosRST regulon; gene MT2079 (Rv2023c)): 0.3535
WT DMSO/WT HC101A Fold change (DosRST regulon; gene MT2080): 0.3483
WT DMSO/WT HC101A Fold change (DosRST regulon; gene MT2086 (Rv2027c)): 0.2146
WT DMSO/WT HC101A Fold change (DosRST regulon; gene MT2087 (Rv2028c)): 0.08521
WT DMSO/WT HC101A Fold change (DosRST regulon; gene MT2088): 0.03414
WT DMSO/WT HC101A Fold change (DosRST regulon; gene MT2089 (Rv2030c)): 0.05595
WT DMSO/WT HC101A Fold change (DosRST regulon; gene MT2090): 0.0263
WT DMSO/WT HC101A Fold change (DosRST regulon; gene MT2091 (Rv2032)): 0.03365
WT DMSO/WT HC101A Fold change (DosRST regulon; gene MT2156 (Rv2107 PE)): 0.3322
WT DMSO/WT HC101A Fold change (DosRST regulon; gene MT2278 (Rv2220 glnAl)): 0.3597
WT DMSO/WT HC101A Fold change (DosRST regulon; gene MT2304 (Rv2244 acpM)): 0.2232
WT DMSO/WT HC101A Fold change (DosRST regulon; gene MT2305 (Rv2245 kasA)): 0.8019
WT DMSO/WT HC101A Fold change (DosRST regulon; gene MT2306): 0.3393
WT DMSO/WT HC101A Fold change (DosRST regulon; gene MT2307 (Rv2247 accD6)): 0.4599
WT DMSO/WT HC101A Fold change (DosRST regulon; gene MT2329 (Rv2267c)): 0.4251
concentration at which artemisinin modulates DosS heme (shift of the reduced Soret peak) (DosS): 400 µM
